Results taken from US20250134865A1, “METHODS OF WEIGHT LOSS IN A SUBJECT WITH ELEVATED HBA1C” (published 2025).
Values joined by “and” are separate entries in the source; they are usually repeats but may differ in a detail not shown here. Equal values may be shown once.

Key:
[1] = tested on: subjects with nonalcoholic fatty liver disease (NAFLD), elevated liver fat (>8%), and elevated body mass index (BMI); test: Phase 2a trial: safety and tolerability; settings: 61 days
[2] = tested on: subjects with nonalcoholic fatty liver disease (NAFLD), elevated liver fat (>8%), and elevated body mass index (BMI); test: Phase 2a trial: FAST score (Fibroscan and AST)
[3] = Phase 2a trial: InBody lean body mass / skeletal muscle mass; settings: 450 mg; Day 61; compared with placebo
[4] = tested on: subjects with nonalcoholic fatty liver disease (NAFLD), elevated liver fat (>8%), and elevated body mass index (BMI); test: Phase 2a trial: VCTE (liver stiffness)
[5] = tested on: inflammatory and metabolic markers; test: Phase 2a trial: inflammatory and metabolic markers; settings: 61-day study

For `Cn1c(COc2ccc([N+](=O)[O-])cc2[N+](=O)[O-])cnc1[N+](=O)[O-]`, the “Diarrhea, share of Compound 1 subjects” value ([1]; all Compound 1 doses, most often mild) was 35% and 25%, the “Flushing, share of Compound 1 subjects” value ([1]; all Compound 1 doses, most often mild, transient, associated with alcohol intake) was 25% and 31.6% and the Tolerability ([1]; all dose levels) was “well-tolerated at all dose levels”. For the same compound, the “FAST, LS mean change at day 61” value ([2]; 150 mg, HbA1c subgroup) was −0.55, the “FAST, LS mean change at day 61” value ([2]; 150 mg, overall population) was −0.37 and the “FAST, LS mean change at day 61” value ([2]; 300 mg, HbA1c subgroup) was −0.69. For the same compound, the “FAST, LS mean change at day 61” value ([2]; 300 mg, overall population) was −0.319, the “FAST, LS mean change at day 61” value ([2]; 450 mg, HbA1c subgroup) was 0.11 and the “FAST, LS mean change at day 61” value ([2]; 450 mg, overall population) was 0.055. For the same compound, the “skeletal muscle mass (and lean body mass and dry lean mass)” value [3] was “remained unchanged”, the “VCTE, LS mean change at day 61” value ([4]; 150 mg, HbA1c subgroup) was −1.27 kPa and the “VCTE, LS mean change at day 61” value ([4]; 150 mg, overall population) was “−.146 kPa”. For the same compound, the “VCTE, LS mean change at day 61” value ([4]; 300 mg, HbA1c subgroup) was −2.84 kPa, the “VCTE, LS mean change at day 61” value ([4]; 300 mg, overall population) was −2.09 kPa and the “VCTE, LS mean change at day 61” value ([4]; 450 mg, HbA1c subgroup) was −0.66 kPa. For the same compound, the “VCTE, LS mean change at day 61” value ([4]; 450 mg, overall population) was −1.35 kPa and the “inflammatory and metabolic markers” value [5] was “Significant reductions”.
